Earlier results in US11939397B2, “ENTPD2 antibodies, combination therapies, and methods of using the antibodies and combination therapies” (Novartis AG, priority 2018, dated 2024).

Chains of the proteins cited; added tags and fusions are not shown.
UniProt P14902, whole entry, species assumed: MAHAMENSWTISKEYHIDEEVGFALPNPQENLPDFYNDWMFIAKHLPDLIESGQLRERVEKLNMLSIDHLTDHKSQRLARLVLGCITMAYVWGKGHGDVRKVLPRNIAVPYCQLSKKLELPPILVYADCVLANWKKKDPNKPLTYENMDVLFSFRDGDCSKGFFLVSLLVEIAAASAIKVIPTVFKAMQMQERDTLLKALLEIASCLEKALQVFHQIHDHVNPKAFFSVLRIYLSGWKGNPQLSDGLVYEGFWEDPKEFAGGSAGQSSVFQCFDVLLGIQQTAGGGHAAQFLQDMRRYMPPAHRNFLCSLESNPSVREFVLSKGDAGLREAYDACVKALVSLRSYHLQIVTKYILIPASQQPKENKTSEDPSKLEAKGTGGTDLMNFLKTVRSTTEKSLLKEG

Molecular target: indoleamine 2,3-dioxygenase (IDO1) (Homo sapiens, UniProt P14902)
Conditions: cited from earlier work

## (4E)-4-[(3-chloro-4-fluoroanilino)-nitrosomethylidene]-1,2,5-oxadiazol-3-amine [Epacadostat]
  selectivity over other related enzymes such as IDO2 or TDO: highly selective
